{"sequences": {"note": "The chains behind the UniProt entries cited, without tags or fusion partners. Residues count along the entry.", "UniProt P08254, 100-477, species assumed": "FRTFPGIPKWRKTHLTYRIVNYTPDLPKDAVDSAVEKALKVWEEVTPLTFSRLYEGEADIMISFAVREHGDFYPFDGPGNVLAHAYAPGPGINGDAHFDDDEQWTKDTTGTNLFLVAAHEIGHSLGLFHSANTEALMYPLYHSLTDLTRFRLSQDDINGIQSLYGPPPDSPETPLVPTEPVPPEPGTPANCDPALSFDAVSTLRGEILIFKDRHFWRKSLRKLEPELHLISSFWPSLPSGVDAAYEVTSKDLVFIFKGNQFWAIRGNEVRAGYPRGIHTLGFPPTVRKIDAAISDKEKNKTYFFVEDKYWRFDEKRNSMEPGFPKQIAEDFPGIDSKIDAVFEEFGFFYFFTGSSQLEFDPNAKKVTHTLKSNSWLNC"}, "source": "patent US20040142333A1", "about": "“Novel secreted proteins and their uses” (priority 2000, published 2004)", "origin": "cited, not measured here", "target": "MMP-3 (Homo sapiens, UniProt P08254)", "conditions": "read-out: Ki against MMP-3", "data": [{"smiles": "COc1ccc(S(=O)(=O)N(CC(=O)NO)CC(C)C)cc1", "note": "[MMP-3 inhibitor II]", "values": [{"measurement": "Ki", "result": 130, "unit": "nM"}]}]}
